Protein sequences, listed by entry. Tags and fused reporters are not part of them.
DNA repair and recombination protein RAD54-like (Homo sapiens), Q92698, UniProt Q92698, whole entry, looked up: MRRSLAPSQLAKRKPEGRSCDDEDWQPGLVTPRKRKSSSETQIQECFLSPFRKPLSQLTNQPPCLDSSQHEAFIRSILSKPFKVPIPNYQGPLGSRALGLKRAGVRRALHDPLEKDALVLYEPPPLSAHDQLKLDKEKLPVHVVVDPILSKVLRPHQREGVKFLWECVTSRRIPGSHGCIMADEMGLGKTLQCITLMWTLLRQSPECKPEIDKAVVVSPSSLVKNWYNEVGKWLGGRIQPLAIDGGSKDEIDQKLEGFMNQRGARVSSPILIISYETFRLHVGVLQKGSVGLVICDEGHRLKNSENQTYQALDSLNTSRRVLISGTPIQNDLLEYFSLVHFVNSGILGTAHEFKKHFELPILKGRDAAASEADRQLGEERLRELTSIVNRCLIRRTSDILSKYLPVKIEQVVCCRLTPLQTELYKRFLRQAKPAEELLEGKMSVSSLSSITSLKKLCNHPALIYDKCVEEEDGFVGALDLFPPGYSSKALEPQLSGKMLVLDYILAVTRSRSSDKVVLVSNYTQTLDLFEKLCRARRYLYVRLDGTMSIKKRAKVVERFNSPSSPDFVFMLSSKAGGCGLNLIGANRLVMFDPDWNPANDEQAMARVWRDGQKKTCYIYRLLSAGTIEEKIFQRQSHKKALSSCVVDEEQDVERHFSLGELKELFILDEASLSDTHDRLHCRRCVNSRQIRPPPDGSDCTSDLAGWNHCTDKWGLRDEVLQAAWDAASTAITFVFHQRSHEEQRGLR
Protein AF-9 (Homo sapiens), P42568, UniProt P42568, whole entry, looked up: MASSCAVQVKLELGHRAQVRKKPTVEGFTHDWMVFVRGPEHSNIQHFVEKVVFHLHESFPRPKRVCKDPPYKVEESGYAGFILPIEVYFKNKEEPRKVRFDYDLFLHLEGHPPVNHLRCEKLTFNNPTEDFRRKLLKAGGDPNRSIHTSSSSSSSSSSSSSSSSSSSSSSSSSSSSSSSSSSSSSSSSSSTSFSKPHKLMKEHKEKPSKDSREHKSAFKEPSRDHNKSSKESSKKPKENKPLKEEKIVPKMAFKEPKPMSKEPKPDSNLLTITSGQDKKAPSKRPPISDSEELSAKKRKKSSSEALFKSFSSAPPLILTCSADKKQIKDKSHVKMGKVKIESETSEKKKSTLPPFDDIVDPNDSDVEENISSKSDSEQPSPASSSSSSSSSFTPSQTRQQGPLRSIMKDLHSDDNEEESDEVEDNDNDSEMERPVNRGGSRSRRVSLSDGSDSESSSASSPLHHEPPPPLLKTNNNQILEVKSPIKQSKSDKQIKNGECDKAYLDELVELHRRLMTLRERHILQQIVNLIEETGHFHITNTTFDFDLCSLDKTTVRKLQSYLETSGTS

# Assay outcomes: PubChem BioAssay, Broad Institute
# RAD54 inh: inhibitors of human RAD54 branch migration, primary screen, biochemical, fluorescence, single point; actives 0.14% (n = 360,000); inhibition, % at 10.4 µM; DNA repair and recombination protein RAD54-like (Homo sapiens), Q92698; RAD54 Holliday junction branch migration, FAM/BHQ fluorescence;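 active = mean normalized replicate activity at least 40 and at least half of replicates scoring 40 or more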;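 also: 0% = median of neutral control wells and 100% = median of positive control wells; inhibitors cause a drop in the FAM fluorescence signal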
# MLL AF4-AF9 inh: inhibitors of AF4 peptide binding to AF9, primary screen, biochemical, AlphaScreen, biotin-AF4 peptide, FLAG-AF9, single point; inhibition, % at 10 µM; AID 651704, 2012; Protein AF-9 (Homo sapiens), P42568; actives 0.47% (n = 350,000);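 active = every replicate reaching a set inhibition limit, whatever the replicate mean, cut at about 25% in these data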;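 also: 0% = plate neutral control median and 100% = total signal loss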
# UUG fidelity: modulators of start codon recognition fidelity in yeast; activity score, % at 18.7 µM; actives 0.13% (n = 350,000); S. cerevisiae UUG-firefly luciferase reporter, luminescence/redox ratio;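 active = replicate mean at a twofold rise or more, about +100% in these data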;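 note: firefly luciferase made from a UUG start codon reports start codon fidelity; reporter light over untreated wells divided by growth signal over untreated wells; some hits fall short of that in this replicate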
# SIRT5 inh: SIRT5 desuccinylase inhibitors, primary screen, biochemical, fluorescence imaging, single point, set 5. inhibition, % at 15 µM. Purified SirT5, succinyl-peptide AMC, trypsin-coupled fluorescence. actives 1.1% (n = 330,000). NAD-dependent protein deacylase sirtuin-5, mitochondrial (Homo sapiens), Q9NXA8; in the data active = inhibition above about 15%
# E-selectin induc: E-selectin induction in HUVECs, primary screen, imaging, HUVEC, immunofluorescence imaging, single point; P16581; normalized: neutral wells 0, TNF-alpha wells 100; activation, % at 7.58 µM; actives 0.37% (n = 260,000);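 active = mean E-selectin-positive cell signal at least 10% of the positive control, reached in at least 60% of replicates, without over 20% cell loss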
#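 Assay system: HUVEC primary endothelial cells. Input: 3,000 HUVEC seeded per well. Doses: one compound dose added by pin transfer. Read-out basis: % PE-positive cells. Benchmarks: TNF-alpha high, DMSO low. Detection: immunofluorescence imaging. Buffer or medium: EGM-2, gelatin.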
# RAD52 anneal inh: RAD52 DNA annealing inhibitors, primary screen, biochemical, FRET, single point, set 2. recombinant RAD52 DNA annealing, FRET fluorescence. inhibition, % at 18.7 µM. actives 0.46% (n = 360,000). DNA repair protein RAD52 homolog (Homo sapiens), P43351. AID 651710, 2012;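 active = every replicate showing at least 50% inhibition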
# * hit, by the source's call; · = not tested or not shown; ! = a repeat was not active. Rows were chosen to be rich in hits. Some 1.8% of all compounds tested hit in one or more screens of this group.
SMILES,RAD54 inh,MLL AF4-AF9 inh,UUG fidelity,SIRT5 inh,E-selectin induc,RAD52 anneal inh
CN(C)CC#Cc1ccc([C@@H]2[C@H]3CN(CC4CC4)CCCCN3[C@H]2CO)cc1,-9,26*,9,-4,0,74*
CN(C)CC#Cc1ccc([C@@H]2[C@@H](CO)N3CCCCN(CC4CC4)C[C@H]23)cc1,0,16,10,2,0,55*
CN(C)CC#Cc1ccc([C@H]2[C@@H](CO)N3CCCCN(CC4CC4)C[C@H]23)cc1,1,26*,11,4,0,67*
CN(C)CC#Cc1ccc([C@H]2[C@H]3CN(CC4CCOCC4)CCCCN3[C@H]2CO)cc1,-11,-4,6,-1,0,38
CC(C)CNC(=O)c1cccc2c1-c1ccccc1C2=O,-1,42*,-12,-2,0,-4
CC(C)NC(=O)N(C)C[C@H]1Oc2ccc(NS(=O)(=O)c3cn(C)cn3)cc2C(=O)N([C@H](C)CO)C[C@H]1C,-2,-3,-14,-5,0,-3
COC(=O)/C(=N/Nc1ccccc1)N1CCCc2ccccc21,0,37*,-7,4,·,-2
COC(=O)/C(=N/Nc1ccc(C)cc1)N1CCCc2ccccc21,·,17,·,0,1,-6
CCOc1ccc(C(=O)Nc2cc(NC(=O)c3ccc(OCC)c(Cl)c3)cc(C(=O)O)c2)cc1Cl,·,-2,·,15*,·,-12
C[C@@H]1CN([C@H](C)CO)C(=O)Cc2cc(NS(C)(=O)=O)ccc2O[C@@H]1CN(C)S(=O)(=O)c1ccc(Cl)cc1,-1,0,3,·,3,6
COCCNC(=O)CCCn1c(=O)c2cc(OC)c(OC)cc2n(CC(=O)c2cccc(OC)c2)c1=O,·,8,·,19*,0,-10
O=C(O)Cc1ccc(Nc2cnn(C34CC5CC(CC(CC(=O)O)(C5)C3)C4)c(=O)c2Cl)cc1,3,2,-10,15*,2,-10
CC=Cc1ccc2n(c1=O)C[C@H]1[C@H](CO)[C@@H](C(=O)NCC)N(C(=O)c3cccnc3)[C@@H]21 (mixture of isomers),9,-5,·,2,0,2
CCCc1nn2c(=O)cc(CSCC(=O)Nc3ccc(C)cc3)nc2s1,-2,-1,-16,36*,0,-10
CCCc1nn2c(=O)cc(CSCC(=O)Nc3nnc(CC)s3)nc2s1,0,0,-2,-1,·,4
COc1ccc(NC(=O)N[C@@H]2CC[C@H](CCNC(=O)CCN3CCCCC3)O[C@H]2CO)cc1,·,0,·,·,0,·
O=[N+]([O-])c1ccc(N2CCN(c3ccc([N+](=O)[O-])cc3CO)CC2)c(CO)c1,12,0,-17,-5,45*,-73
Cc1cc(NCc2ccccn2)n2nc(C)c(-c3ccc(Cl)cc3)c2n1,0,-1,-36,·,47*,-19
O=C(Nc1ccnn1C1CCN(Cc2ccc(OC(F)F)cc2)CC1)C1CCCC1,0,5,7,19*,·,-3
COCC(=O)N(C)C[C@H]1Oc2cc(C#CCN(C)C)ccc2S(=O)(=O)N([C@@H](C)CO)C[C@@H]1C,2,-3,-3,-2,1,9
Cc1ccccc1S(=O)(=O)N1CC(=O)N2[C@H](CO)[C@@H](c3ccc(C#CC4CC4)cc3)[C@@H]2C1,·,-2,·,2,0,-11
Cc1ccc(S(=O)(=O)Nc2nc3ccccc3nc2Nc2cccc(S(=O)(=O)N3CCCC3)c2)cc1,·,9,·,0,·,-16
O=[N+]([O-])c1cccc(S(=O)(=O)Nc2nc3ccccc3nc2Nc2cccc(S(=O)(=O)N3CCCCC3)c2)c1,·,15,·,25*,-1,-5
CC(C)c1ccc(-n2c(-c3ccccc3)c[n+]3c2CCc2ccccc2-3)cc1,·,2,·,-2,2,8
COc1ccccc1-n1c(-c2ccccc2)c[n+]2c1CCc1ccccc1-2,1,-4,-9,112*!,0,-17
Cc1ccc(S(=O)(=O)N(C)C[C@H]2Oc3ncc(C#CC4(O)CCCC4)cc3C(=O)N([C@@H](C)CO)C[C@H]2C)cc1,20,0,40,5,0,8
COC(=O)c1ccc(-c2noc(CN(C)CCC3CCCCO3)n2)cc1 (stereo unspecified),·,-2,·,-4,·,-1
COC(=O)c1ccc(-c2noc(CN3CCCC(CNC(C)=O)C3)n2)cc1 (stereo unspecified),-16,-9,-18,35*,2,-7
COCCNC(=O)C[C@H]1C[C@H]2c3cc(NC(=O)c4cccnc4)ccc3O[C@H]2[C@H](CO)O1,6,-2,-10,-2,1,-7
COc1ccc(S(=O)(=O)Nc2ccc3c(c2)C(=O)N([C@H](C)CO)C[C@H](C)[C@H](CN(C)S(=O)(=O)c2ccc(F)cc2)OCCCC[C@@H](C)O3)cc1,-2,-2,-2,9,0,-48
COc1ccc(S(=O)(=O)N(C)C[C@@H]2OCCCC[C@@H](C)Oc3ccc(NS(=O)(=O)c4ccc(F)cc4)cc3C(=O)N([C@H](C)CO)C[C@H]2C)cc1,-8,-1,-3,18*,1,6
COc1ccc(S(=O)(=O)N(C)C[C@H]2OCCCC[C@H](C)Oc3ccc(NS(=O)(=O)c4ccc(F)cc4)cc3C(=O)N([C@@H](C)CO)C[C@H]2C)cc1,1,0,-3,23*,0,17
COc1ccc(S(=O)(=O)N(C)C[C@@H]2OCCCC[C@H](C)Oc3ccc(NS(=O)(=O)c4ccc(F)cc4)cc3C(=O)N([C@@H](C)CO)C[C@H]2C)cc1,-9,-2,13,17*,0,15
COc1ccc(S(=O)(=O)N(C)C[C@H]2OCCCC[C@H](C)Oc3ccc(NS(=O)(=O)c4ccc(F)cc4)cc3C(=O)N([C@H](C)CO)C[C@H]2C)cc1,-14,-1,1,23*,1,-10
CO[C@@H]1CN(C)C(=O)c2cc(NC(C)=O)ccc2OC[C@H](C)N(C(=O)c2ccccc2F)C[C@@H]1C,4,2,-4,3,0,-7
COc1ccc(S(=O)(=O)N(C)C[C@H]2OCCCC[C@@H](C)Oc3ccc(NS(=O)(=O)c4ccc(F)cc4)cc3C(=O)N([C@@H](C)CO)C[C@@H]2C)cc1,16,-2,5,23*,1,-6

# Five records picked at random from those above, as already listed:
SMILES,RAD54 inh,MLL AF4-AF9 inh,UUG fidelity,SIRT5 inh,E-selectin induc,RAD52 anneal inh
COc1ccc(S(=O)(=O)Nc2ccc3c(c2)C(=O)N([C@H](C)CO)C[C@H](C)[C@H](CN(C)S(=O)(=O)c2ccc(F)cc2)OCCCC[C@@H](C)O3)cc1,-2,-2,-2,9,0,-48
COc1ccccc1-n1c(-c2ccccc2)c[n+]2c1CCc1ccccc1-2,1,-4,-9,112*!,0,-17
COc1ccc(S(=O)(=O)N(C)C[C@H]2OCCCC[C@H](C)Oc3ccc(NS(=O)(=O)c4ccc(F)cc4)cc3C(=O)N([C@H](C)CO)C[C@H]2C)cc1,-14,-1,1,23*,1,-10
COc1ccc(S(=O)(=O)N(C)C[C@H]2OCCCC[C@@H](C)Oc3ccc(NS(=O)(=O)c4ccc(F)cc4)cc3C(=O)N([C@@H](C)CO)C[C@@H]2C)cc1,16,-2,5,23*,1,-6
COC(=O)c1ccc(-c2noc(CN(C)CCC3CCCCO3)n2)cc1 (stereo unspecified),·,-2,·,-4,·,-1
